Measurements as given in US12319708B2, “Agonists of peroxisome proliferator-activated receptor alpha (PPARα) and methods of use” (The Board of Regents of the University of Oklahoma, priority 2018, dated 2025).
Where two headings read alike, the source gives them in different places.

Tests used:
hPPARα [1] = molecular target: T1, hPPARα (Homo sapiens, UniProt Q07869); settings: known property of reference agonist; cited from earlier work
T1 sequence (Q07869 1-468): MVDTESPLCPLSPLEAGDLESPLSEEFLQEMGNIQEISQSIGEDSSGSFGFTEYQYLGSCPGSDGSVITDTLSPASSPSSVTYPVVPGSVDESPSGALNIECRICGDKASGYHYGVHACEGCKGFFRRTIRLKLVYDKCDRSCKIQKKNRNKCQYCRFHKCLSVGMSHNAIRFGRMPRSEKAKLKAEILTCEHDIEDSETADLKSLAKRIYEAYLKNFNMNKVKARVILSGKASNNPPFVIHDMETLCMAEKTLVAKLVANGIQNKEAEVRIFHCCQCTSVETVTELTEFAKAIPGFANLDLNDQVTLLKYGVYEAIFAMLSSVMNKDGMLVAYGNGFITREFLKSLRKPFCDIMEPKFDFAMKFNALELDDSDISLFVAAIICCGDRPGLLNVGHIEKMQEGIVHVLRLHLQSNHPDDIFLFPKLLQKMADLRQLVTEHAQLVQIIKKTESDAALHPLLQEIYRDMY

hPPARα [2] = molecular target: T1, hPPARα; test: PPARα luciferase cell reporter assay (Indigo Biosciences); type: cell-based

Cc1nc(-c2ccc(C(F)(F)F)cc2)sc1C(=O)NCc1ccc(OC(C)(C)C(=O)O)cc1 [GW590735, reference compound]
selectivity for PPARα over PPARγ and PPARδ (hPPARα [1]): ≥ 500 fold
ratio (5/50): ratio of relative light unit (RLU) signal at 5 and 50 μM (hPPARα [2]; 5 and 50 μM compound concentrations): 1.0
EC50 (hPPARα [2]; luciferase reporter cell-line, triplicate, single experiment, read-out: hPPARα EC50): 12 nM
EC50 (hPPARα [2]; mean ± SEM of at least two separate experiments in triplicate (Table 9), read-out: EC50 hPPARα): 15 ± 2 nM
fold-signal: ratio of maximal signal strength to that obtained with GW590735 (hPPARα [2]; relative to GW590735): 1.0
